Test results: ChEMBL document CHEMBL2150954, “A novel, unusually efficacious duocarmycin carbamate prodrug that releases no residual byproduct” (J Med Chem, 2012)

Assay: Half life in phosphate buffer at pH 7

## O=C1Nc2cccc3c4c(cc(c23)O1)N(C(=O)c1cc2cc(NC(=O)c3cc5ccccc5[nH]3)ccc2[nH]1)C[C@H]4CCl
  t1/2: > 28 days
